Values quoted from earlier work in patent US6569839B1, “Fast-acting pharmaceutical compositions and methods of use” (priority 1998, dated 2003).

Conditions: in vivo; cited from earlier work

C[C@]12CCC(=O)C=C1CC[C@@H]1[C@@H]2[C@@H](O)C[C@@]2(C)[C@H]1CC[C@]2(O)C(=O)COC(=O)CCC(=O)O [Solu-Cortef, Hydrocortisone sodium succinate]
duration of activity suppression: about 1.5 days
